Measurements published in patent publication EP1142587A1 (priority 1998, dated 2000).

Test system: ddY male mice
Assay: Analgetic action determined by hot plate test
Assay type: in vivo
Conditions: intraperitoneally, 30 minutes after administration, 52°C hot plate

First: O=C1NCN(c2ccccc2)C12CCN(Cc1cccnc1)CC2 [Example 17, 1'-(3-pyridyl)methyl-spiroimidazolidine-4,4'-piperidine-3-phenyl-5-on]
Second: Cc1ccc(CN2CCC3(CC2)C(=O)NCN3c2ccccc2)cn1 [Example 16, 1'-(6-methyl-3-pyridyl)methyl-spiroimidazolidine-4,4'-piperidine-3-phenyl-5-on]
The “ED50 value regarding analgetic effect” value of the first is 7.6-fold higher: 15.1 mg/kg for the first, 1.98 mg/kg for the second.

Cc1ccc(CN2CCC3(CC2)C(=O)NCN3c2ccccc2)cc1 [Example 23, 1'-(4-methylbenzyl)-spiroimidazolidine-4,4'-piperidine-3-phenyl-5-on] and O=C1NCN(c2ccccc2)C12CCN(Cc1ccc(Br)cc1)CC2 [Example 18, 1'-(4-bromobenzyl)-spiroimidazolidine-4,4'-piperidine-3-phenyl-5-on] are within 1.5-fold of each other in “ED50 value regarding analgetic effect” value: 7.23 mg/kg for the first, 7.76 mg/kg for the second.

Compared with COc1ccc(CN2CCC3(CC2)C(=O)NCN3c2ccccc2)cc1 [Example 14, 1'-(4-methoxybenzyl)-spiroimidazolidine-4,4'-piperidine-3-phenyl-5-on], O=C1NCN(c2ccccc2)C12CCN(Cc1ccc(Cl)nc1)CC2 [Example 15, 1'-(6-chloro-3-pyridyl)methyl-spiroimidazolidine-4,4'-piperidine-3-phenyl-5-on] is 1.7-fold lower in “ED50 value regarding analgetic effect” value: 2.99 mg/kg for the first, 1.79 mg/kg for the second.

Test system: Mice
Assay: Influence on locomotor activity
Conditions: intraperitoneally, measured for 2 hours with infrared sensor

With “1'-(2-naphtylmethyl)-spiroimidazolidine-4,4'-piperidine-3-phenyl-5-on” the “effect on locomotor activity” value was “no effect on locomotor activity”.
